# Yeast mating assay B: variants of the scFv Ab-14

Binding partner: SARS-CoV-2 spike HR2 peptide, sequence PDVDLGDISGINAS.

Ab-14 is the parent antibody, in scFv form: VH, then three GGGGS repeats, then VL. The light chain is unchanged in all variants.
VH: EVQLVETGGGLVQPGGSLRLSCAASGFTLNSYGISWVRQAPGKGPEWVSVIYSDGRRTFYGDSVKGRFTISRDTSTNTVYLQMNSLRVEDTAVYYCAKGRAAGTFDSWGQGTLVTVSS
VL: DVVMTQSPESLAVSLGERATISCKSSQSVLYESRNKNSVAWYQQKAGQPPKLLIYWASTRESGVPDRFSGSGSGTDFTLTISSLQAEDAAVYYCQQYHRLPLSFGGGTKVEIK

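The starting antibody came from a phage panning campaign against this peptide. These sequences belong to a second round, designed from the earlier measurements on random variants of the parent. Several design methods are mixed in this list. The scFvs were displayed on barcoded MATa yeast, the peptide on MATalpha yeast. Mating (16 h, 30 °C) was followed by selection of diploids and sequencing of their barcodes. Scores were corrected for input abundance and mapped to Kd with protein pairs of known affinity run in the same pool. The assay was run in six technical replicates.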

Each variant is given by its three heavy chain CDRs, as the data file delimits them; those of the parent are GFTLNSYGIS, VIYSDGRRTFYGDSVK, GRAAGTFDS.
Values are apparent Kd, the geometric mean of the replicates that gave a signal; lower means stronger binding.
"nd" means that the variant was in the library but no mating with the target was seen in any replicate; the authors take this as a sign of poor binding, and no number exists.
A sequence measured in both rounds can read differently, since the two assays cover different ranges.
The parent sequence was in this pool as ten entries: three were never detected, three once, and four in most replicates, with averages from 2.2 nM to 240 nM.
Some sequences occur more than once in the pool; their replicates are pooled.
The authors' rule: three or more of the six replicates give a measured affinity, fewer mean a poor binder.
Nonspecific signal, from three strains lacking the peptide, appeared in 1% of pairings of all heavy chain designs, centred on 120 nM (5% of these signals below 7.0 nM); values are not corrected for it. Also given: how often the same scFv was detected with the empty control strains.

With GFDLDEYGIS / VIYADGKRTVYADSVK / GENAGTFDI the result was 81 pM (5 of 6 replicates; controls 0 of 18).
With GYDIDEYGIS / VIYADGQRTSYQQSVK / GAGDITGLV the result was nd (0 of 6 replicates; controls 0 of 18).
With GFSLDEYGIS / VIYADGRRTAYQDDVK / GNVAGTFDS the result was 2.0 nM (6 of 6 replicates; controls 0 of 18).
With GFELNSYGIS / VIYSDGRRTFYADDVK / GNAAGTFDS the result was 5.9 nM (3 of 6 replicates; controls 0 of 18).
With GFTLDSYGIS / VIYSDGRPTFYGDSQK / HWAAGTALS the result was nd (0 of 6 replicates; controls 0 of 18).
With GFDLNEYGIS / VIYADGMRTAYADSVK / GQNAGTFDT the result was 560 pM (6 of 6 replicates; controls 0 of 18).
With GFTLNTYGIS / VIYSDGRRTFYGDSVK / GRAAGTFDS the result was 54 nM (2 of 6 replicates; controls 0 of 18).
With GIWLNSYGIS / VIYSDGRRTFYGDSVR / GRAAGTFDS the result was 130 nM (1 of 6 replicates; controls 0 of 18).
With GFTLNSYGIS / VIYADGRRTFYGDSVK / GRAAGTADS the result was nd (0 of 6 replicates; controls 0 of 18).
With GFDLNEYGIS / VIYADGVRTAYAESVK / GENAGTFDV the result was nd (0 of 6 replicates; controls 0 of 18).
With GFELNSYGIS / VIYSDGRRTFYQDHVK / GKTAGTFDS the result was 80 nM (4 of 6 replicates; controls 0 of 18).
With GFTLNSYGIS / VIYSDGRRTQYGDSVK / GRATGTFDS the result was nd (0 of 6 replicates; controls 1 of 18).
With GFCLNSYGIS / VIYSDGRRTFYDDSVK / GQLAGTFDS the result was 1.2 µM (3 of 6 replicates; controls 1 of 18).
With GFDLDEYGIS / VIYADGRRTFYADSVK / GEEAGTFDV the result was 480 pM (6 of 6 replicates; controls 1 of 18).
With GYDLQDYGIS / VIYADGVRQFYHDNFK / GQLAGTFLL the result was nd (0 of 6 replicates; controls 0 of 18).
With GFDLDEYGIS / VIYADGTRSGYTANVK / GEAAGFTMF the result was nd (0 of 6 replicates; controls 0 of 18).
With NFTLNEYGIS / VIYSDGRRTFYTDSVK / YRFAGTFDS the result was nd (0 of 6 replicates; controls 0 of 18).
With GFDLNEYGIS / VIYADGSRTAYSDSVK / GEVAGTFDT the result was 480 pM (6 of 6 replicates; controls 0 of 18).
With GFHLNSYGIS / VIYADGRRTFYGDSVK / GRAAGTFKS the result was nd (0 of 6 replicates; controls 0 of 18).
With GFDINEYGIS / VIYADGMRTAYRDSVK / GEGKWIVLI the result was 51 nM (3 of 6 replicates; controls 0 of 18).
With GFDLNEYGIS / VIYADGQRTQYASSFK / GDLAGYFES the result was nd (0 of 6 replicates; controls 0 of 18).
With GFTANEYGIS / VIYSKGRRTFYTDSVK / GRFAGTFDS the result was nd (0 of 6 replicates; controls 0 of 18).
With GFTLNDYDIS / VIYSDGRRTFYGDSVK / GRAALTFIS the result was nd (0 of 6 replicates; controls 1 of 18).
With GFTLNSYGIS / VIYSDGRRTFYSDSVK / GRAAGTFDL the result was 9.0 nM (9 of 12 replicates; controls 0 of 36).
With GFDLDEYGIS / VIYADGMRKAYADSVK / GTNAGTFDV the result was 180 pM (6 of 6 replicates; controls 0 of 18).
With GFDLEEYGIS / VIYADGMRTAYADSVK / GEVAGTFDV the result was 520 pM (6 of 6 replicates; controls 1 of 18).
With GFSLNSYGIS / VIYSDGRRTFYKDSVK / GEAAGTFDN the result was 21 nM (6 of 6 replicates; controls 0 of 18).
With GFDLNEYGIS / VIYADGRRTFYADSVK / GNAAGTFDQ the result was 470 pM (6 of 6 replicates; controls 1 of 18).
With GFNLNEYGIS / VIYADGRRKMYADSVK / GNTAGTFDT the result was 210 pM (6 of 6 replicates; controls 0 of 18).
With GFTINSYGIS / VIYSDGRRTFYGDSVK / GRAPGTFDS the result was nd (0 of 6 replicates; controls 1 of 18).
With GFDINEYGIS / VIYADGFRLAYVQNVK / GEHAGSVEV the result was nd (0 of 6 replicates; controls 0 of 18).
With GFTLNSYGIS / VIYADGRRTFYGDSVK / GVAAGTFKM the result was 2.0 nM (6 of 6 replicates; controls 0 of 18).
With GKDLGEYGIS / VIYADGKRTAYVENVK / GTFGGTLLD the result was nd (0 of 6 replicates; controls 0 of 18).
With GFTLNEYGIS / VIYSDGRRTFYQDDVK / GRAAGTFDQ the result was 1.1 nM (4 of 6 replicates; controls 0 of 18).
With GFELNSYGIS / VIYSDGRRTFYGDQVK / GMTAGTFDS the result was 6.1 nM (6 of 6 replicates; controls 0 of 18).
With GFDLNEYGIS / VIYADGSRTAYADNVK / GEVAGTFDQ the result was 290 pM (6 of 6 replicates; controls 0 of 18).
With GFELNMYGIS / VIYSDGRRTFYGDSVK / GQAAGTFDK the result was 190 nM (1 of 6 replicates; controls 0 of 18).
With GFDLNEYGIS / VIYADGSRTAYVDSVK / GQVAGTFDV the result was 150 pM (6 of 6 replicates; controls 0 of 18).
With GFDLLSYGIS / VIYSDGRRTFYGDSVK / GRAAGWANS the result was nd (0 of 6 replicates; controls 0 of 18).
With GFTHNSYGIS / VIYSDGRRTYYGDSVK / GRAAGTFDS the result was 46 nM (1 of 6 replicates; controls 1 of 18).
With GFDISEYGIS / VIYADGKKTQYKNAVK / GENGGYFNV the result was 2.8 nM (1 of 6 replicates; controls 0 of 18).

A selection of 7 entries from above:

With GFDLDEYGIS / VIYADGMRKAYADSVK / GTNAGTFDV the result was 180 pM (6 of 6 replicates; controls 0 of 18).
With GFTLNTYGIS / VIYSDGRRTFYGDSVK / GRAAGTFDS the result was 54 nM (2 of 6 replicates; controls 0 of 18).
With GFDLNEYGIS / VIYADGSRTAYADNVK / GEVAGTFDQ the result was 290 pM (6 of 6 replicates; controls 0 of 18).
With GFELNSYGIS / VIYSDGRRTFYQDHVK / GKTAGTFDS the result was 80 nM (4 of 6 replicates; controls 0 of 18).
With GKDLGEYGIS / VIYADGKRTAYVENVK / GTFGGTLLD the result was nd (0 of 6 replicates; controls 0 of 18).
With GFDLNEYGIS / VIYADGQRTQYASSFK / GDLAGYFES the result was nd (0 of 6 replicates; controls 0 of 18).
With GFTLNSYGIS / VIYADGRRTFYGDSVK / GVAAGTFKM the result was 2.0 nM (6 of 6 replicates; controls 0 of 18).

Reference: Li et al. 2023, doi:10.1038/s41467-023-39022-2. File: FLAb, binding data.